The assay deals with cortical neurons. Briefly: Focal glutamate perfusion of brain slices, intracellular recordings of membrane potential. To be noted: 20 mM glutamate, neuron located 0.9 mm from the focal perfusion.

Turning to `N[C@@H](CCC(=O)O)C(=O)O` [glutamate], the “membrane potential of neuron (depolarization)” value is on record as “depolarization was delayed”.

These data come from patent US20110212484A1, “In Vitro Model of Focal Ischemia” (priority 2008, published 2011).
